This note sets out measurements from patent US4389408A, “Novel ampicillin esters and production thereof” (priority 1980, dated 1983).

Where a name gives a salt, the structure may show the parent alone. Read-outs that look alike come from different tables or passages of the source.

One data set in a line: in vivo. Conditions: mouse, mice, aqueous solution.
The format of data set [1] is in vitro ADME. The method, then: Each of the test compounds was dissolved to a predetermined concentration in an acidic aqueous medium (simulated gastric juice) having a pH of 1.2 prepared by adding 2.0 g of sodium chloride, 24 ml of 10% hydrochloric acid and 3.2 g of pepsin to 1000 ml of water. While the solution was shaken at 37° C., it was periodically sampled. The sampled solution was subjected to high-speed liquid chromatography using a reversed phase partition column, and the hydrolysis ratio of the compound was determined from a decrease in the peak height of the compound in the chromatogram.

Data set [2] is classed as in vitro ADME. The method, then:
The procedure of (a) was repeated except that a basic aqueous medium (simulated intestinal juice) having a pH of 7.50 prepared by adding 35.8 g of disodium phosphate, 6.0 ml of 10% hydrochloric acid and 2.8 g of pancreatin to 1000 ml of water was used instead of the acidic aqueous medium.
The source holds these as a separate data set.

For orientation: LD50 means the dose expected to kill half of the subjects tested. `Cc1oc(=O)oc1COC(=O)[C@@H]1N2C(=O)[C@@H](NC(=O)[C@H](N)c3ccccc3)[C@H]2SC1(C)C` [A, Ampicillin (5-methyl-2-oxo-1,3-dioxolen-4-yl)methyl ester hydrochloride]: the LD50 in the data set “in vivo” (intravenous) is 557 mg/kg; in the data set “in vivo” (ip, intraperitoneal), 1430 mg/kg; in the data set “in vivo” (oral), above 5000 mg/kg. In addition, the “Rate of hydrolysis relative to that of Ampicillin phthalidyl ester” value in data set [1] and in data set [2] was “about one half” each time.
